Here are results for one substance from patent US20210162009A1, “CHEMOKINE VARIANTS AS IMMUNE STIMULANTS” (THE MEDICAL COLLEGE OF WISCONSIN, INC., priority 2017, published 2021).

The assay is described as follows: Translational diffusion measurements (dimerisation state). The class given is physicochemical. To be noted: 20 mM sodium phosphate pH 7.4; non-linear fitting of Ds values; read-out: dimer dissociation Kd. From the text: The lines connecting the cysteines show where the intra-and intermolecular disulfide bonds are. A) CXCL12-α2 locked dimer amino acid sequence with the conserved intramolecular disulfide bonds (black lines) and the engineered intermolecular disulfide bonds (red lines) illustrated. B) SDS-PAGE of CXCL12-αand CXCL12-α2 treated with and without dithiothreitol (DTT). CXCL12-α and CXCL12-α2 migrate near the monomeric molecular weight of 8 kDa when treated with DTT. In contrast, CXCL12-α2 migrates as a dimer while CXCL12-α migrates as a monomer in the absence of DTT. C) Translational diffusion measurements of CXCL12-α2 indicate CXCL12-α2 is dimeric. […] Ds values for 10, 50, and 150 μM SDF12 (red triangles) range from 1.08-1.09 (×10^−6 cm^2s^−1) consistent with those expected for CXCL12-α in the dimeric state. D) N-terminal peptides corresponding to the first thirty-eight amino acids of CXCR4 are illustrated. The sequence for p38 is identical to that of CXCR4 except for an additional N-terminal Gly-Ser dipeptide (cloning artifact) and the C28A substitution (green) introduced to prevent oxidative peptide dimer formation. The sulfated peptides are identical to p38 except for the inclusion of sulfotyrosine at position 21 for p38-sY1 and at positions 7, 12 and 21 for p38-sY3.

Regarding “wild-type CXCL12: wild type CXCL12 chemokine (SEQ ID NO:3), natural ligand for CXCR4”, the equilibrium dissociation constant (Kd) came to 120 µM.

Usually Kd stands for the equilibrium constant for the complex coming apart.
